# Assay results as given in US8466160B2, “Identification of non-small cell lung carcinoma (NSCLC) tumors expressing PDGFR-alpha” (priority 2005, dated 2013).
# Test system: EGFR phosphorylation
# Assay: Western blot of EGFR phosphorylation in H1703 cells
# Details: FIG. 9(a)
smiles,measurement,value
COc1cc2ncnc(Nc3ccc(F)c(Cl)c3)c2cc1OCCCN1CCOCC1 [Iressa™],effect on EGFR phosphorylation,decreases
